# Source: patent EP0637247B1, “TREATMENT OF HERPESVIRUS INFECTION” (priority 1992, dated 1993)
# Conditions: mice, 14C-labelled compound
# Description: Counts were measured and used to calculate the amount and concentration of drug in each organ.
substance,measurement,setting,value
N-α-[^14C-acetyl]-nona-D-arginine amide acetate,distribution of drug to tissues,"i.v. (tail vein) and s.c. (abdomen) injection, scintillation counting of organs",rapid distribution of drug to tissues
same,organs with highest and most prolonged levels,i.v. and s.c. injection,"liver, followed by the kidneys and spleen"
